Reference: patent US20240246970A1, “SUBSTITUTED HETERO-BICYCLOCOMPOUNDS AS SUBTYPE SELECTIVE NICOTINIC ACETYLCHOLINE RECEPTOR INHIBITORS” (THE BOARD OF TRUSTEES OF THE UNIVERSITY OF ILLINOIS, priority 2021, published 2024)

Sequences of proteins named here, by UniProt entry; tags and fusion partners are left off. Residues count along the entry.
UniProt P04757, 26-499 limits assumed: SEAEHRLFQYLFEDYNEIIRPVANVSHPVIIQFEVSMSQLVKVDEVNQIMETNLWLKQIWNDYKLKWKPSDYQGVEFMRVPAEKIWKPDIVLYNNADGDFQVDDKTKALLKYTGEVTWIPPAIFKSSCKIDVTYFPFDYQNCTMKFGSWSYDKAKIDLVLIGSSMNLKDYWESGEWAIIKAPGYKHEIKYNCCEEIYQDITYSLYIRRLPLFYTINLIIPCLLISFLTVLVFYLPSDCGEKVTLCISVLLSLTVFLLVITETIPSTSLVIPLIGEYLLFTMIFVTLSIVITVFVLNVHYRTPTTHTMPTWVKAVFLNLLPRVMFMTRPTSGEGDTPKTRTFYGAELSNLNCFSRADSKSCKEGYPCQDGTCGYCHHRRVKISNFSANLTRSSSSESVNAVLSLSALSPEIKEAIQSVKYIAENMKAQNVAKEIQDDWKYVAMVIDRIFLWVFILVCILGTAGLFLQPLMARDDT
UniProt P12392, 21-495 limits assumed: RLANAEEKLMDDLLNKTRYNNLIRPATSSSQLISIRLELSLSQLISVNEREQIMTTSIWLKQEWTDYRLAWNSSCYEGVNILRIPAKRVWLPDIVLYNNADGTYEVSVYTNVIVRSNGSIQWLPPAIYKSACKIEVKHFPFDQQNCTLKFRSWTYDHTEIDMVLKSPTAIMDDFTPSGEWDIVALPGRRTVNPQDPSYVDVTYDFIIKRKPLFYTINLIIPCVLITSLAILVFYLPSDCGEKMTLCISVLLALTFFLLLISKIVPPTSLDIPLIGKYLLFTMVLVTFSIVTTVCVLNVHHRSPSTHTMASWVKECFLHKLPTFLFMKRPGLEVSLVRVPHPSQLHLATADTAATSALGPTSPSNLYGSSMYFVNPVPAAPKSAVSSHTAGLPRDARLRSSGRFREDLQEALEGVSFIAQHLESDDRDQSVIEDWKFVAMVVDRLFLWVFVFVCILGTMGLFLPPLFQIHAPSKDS

Molecular target: rat α3β4 nAChR (Rattus norvegicus, UniProt P04757+P12392)
Test: Calcium influx assay (dual agonist/antagonist, FLIPR calcium 6) in HEK293 cells expressing rat α3β4 nAChR
Assay type: cell-based
Details: read-out: α3β4 nAChR IC50
[1] = Table 4, R1 and R2 methyl, R3 NH unless otherwise indicated

| Compound | IC50 (Table 3) | IC50 [1] |
| --- | --- | --- |
| CC1=CCC2CC1C1NC(C)(C)c3ccccc2cc1o3 (centres unmarked) | 23.3 µM | – |
| CC1=CCC2CC1C(c1cc(O)cc(O)c1)NC2(C)C (single isomer, unassigned) | > 100 µM | 102 µM |
| CC1=CCC2CC1C(c1ccc(C(F)(F)F)cc1)NC2(C)C (single isomer, unassigned) | 0.79 µM | – |
| CC1=CCC2CC1C(c1ccc(F)c(C(F)(F)F)c1)NC2(C)C (single isomer, unassigned) | 0.28 µM | – |
| CC1=CCC2CC1C(c1ccc(F)c(F)c1)NC2(C)C (single isomer, unassigned) | 0.32 µM | – |
| CC1=CCC2CC1C(c1ccc(N(C)C)cc1)NC2(C)C (single isomer, unassigned) | 12 µM | 12 µM |
| CC1=CCC2CC1C(c1ccc([N+](=O)[O-])cc1)NC2(C)C (single isomer, unassigned) | 3.1 µM | 3.14 µM |
| CC1=CCC2CC1C(c1ccnc(F)c1)NC2(C)C (single isomer, unassigned) | > 100 µM | – |

Read-outs that look alike come from different tables or passages of the source.
